Literature values, collected in PMC12389006, “In Vitro and In Vivo Evaluation of Alectinib-Loaded Dendrimer Nanoparticles as a Drug Delivery System for Non-Small Cell Lung Carcinoma” (Pharmaceutics, 2025).

System: ALK-positive NSCLC
Details: first-line treatment; cited from earlier work

SMILES | disease progression or mortality, share of treated patients
C[C@@H](Oc1cc(-c2cnn(C3CCNCC3)c2)cnc1N)c1c(Cl)ccc(F)c1Cl [Crizotinib] | 68%
CCc1cc2c(cc1N1CCC(N3CCOCC3)CC1)C(C)(C)c1[nH]c3cc(C#N)ccc3c1C2=O.Cl [Alectinib, 9-ethyl-6,6-dimethyl-8-[4-(morpholine-4-yl)piperidin-1-yl]-11-oxo-6,11-dihydro-5H-benzo[b]carbazole-3-carbonitrile hydrochloride] | 41%
